{
  "source": "patent US20140377219A1",
  "about": "“HIV INHIBITORS” (New york Blood Center, Inc., priority 2011, published 2014)",
  "key": {"[1]": {"test_system": "NL4-3-HXB2-Luc pseudotyped virus expressing Env of the HIV-1HxB2 (X4)", "details": "read-out: TZM-bl cells IC50 (μM ± SD), single-cycle assay"}, "[2]": {"test_system": "NL4-3-HXB2-Luc pseudotyped virus expressing Env of the HIV-1HxB2 (X4)", "assay": "microbe, parasite or virus in culture", "details": "Human immunodeficiency virus 1, HXB2|NL43, TZM-bl, read-out: TZM-bl cells IC50 (μM ± SD)"}},
  "note": "Structures can show the parent of a compound that is named as a salt. Where two headings read alike, the source gives them in different places.",
  "data": [
    {"smiles": "Cc1nc(C(NC(=O)C(=O)Nc2ccc(F)c(Cl)c2)C2CCCCN2)sc1CCO.Cl.Cl", "note": "(stereo not shown) [Compound 35, N^1-(3-chloro-4-fluorophenyl)-N^2-((5-(2-hydroxyethyl)-4-methylthiazol-2-yl)(piperidin-2-yl)methyl)oxalamide.2HCl]", "values": [
      {"measurement": "IC50", "setting": "[1]", "value": "9 ± 1", "unit": "µM"}
    ]},
    {"smiles": "Cc1nc(C(NC(=O)C(=O)Nc2ccc(Cl)cc2)C2CCNCC2)sc1CCO", "note": "(stereo not shown) [Compound 11, N^1-(4-chlorophenyl)-N^2-((5-(2-hydroxyethyl)-4-methylthiazol-2-yl)(piperidin-4-yl)methyl)oxalamide.2HCl]", "values": [
      {"measurement": "IC50", "setting": "[1]", "value": "1 ± 0.8", "unit": "µM"}
    ]},
    {"smiles": "Cc1nc(C(NC(=O)C(=O)NC2CCCCCC2)C2CCCCN2)sc1CO", "note": "(stereo not shown) [Compound 29, N^1-cycloheptyl-N^2-((5-(hydroxymethyl)-4-methylthiazol-2-yl)(piperidin-2-yl)methyl)oxalamide.HCl]", "values": [
      {"measurement": "IC50", "setting": "[1]", "value": "> 90", "unit": "µM"}
    ]},
    {"smiles": "O=C(CCC(=O)Nc1ccc(Cl)cc1)NCCCN1CCC(O)CC1", "note": "[Compound 44, N^1-(4-chlorophenyl)-N^4-(3-(4-hydroxypiperidin-1-yl)propyl)succinamide]", "values": [
      {"measurement": "IC50", "setting": "[2]", "value": "26.3 ± 3.6", "unit": "µM"}
    ]},
    {"smiles": "O=C(CCC(=O)Nc1ccc(Cl)cc1)NCc1ccc(S(=O)(=O)N2CCOCC2)cc1", "note": "[Compound 42, N^1-(4-chlorophenyl)-N^4-(4-(morpholinosulfonyl)benzyl)succinamide]", "values": [
      {"measurement": "IC50", "setting": "[2]", "value": "15.7 ± 3.1", "unit": "µM"}
    ]},
    {"smiles": "O=C(CCC(=O)Nc1ccc(Cl)cc1)NCCCN1CCCC(O)C1", "note": "(stereo not shown) [Compound 43, N^1-(4-chlorophenyl)-N^4-(3-(3-hydroxypiperidin-1-yl)propyl)succinamide]", "values": [
      {"measurement": "IC50", "setting": "[2]", "value": "16.5 ± 1.4", "unit": "µM"}
    ]},
    {"smiles": "Cc1nc(C(NC(=O)CCC(=O)Nc2ccc(Cl)cc2)C2CCCN2)sc1CO", "note": "(stereo not shown) [Compound 41, N^1-(4-chlorophenyl)-N^4-((5-(hydroxymethyl)-4-methylthiazol-2-yl)(pyrrolidin-2-yl)methyl)succinamide.HCl]", "values": [
      {"measurement": "IC50", "setting": "[1]", "value": "> 42", "unit": "µM"}
    ]}
  ]
}
